The chains behind the UniProt entries cited, without tags or fusion partners.
UniProt O15492, whole entry, looked up: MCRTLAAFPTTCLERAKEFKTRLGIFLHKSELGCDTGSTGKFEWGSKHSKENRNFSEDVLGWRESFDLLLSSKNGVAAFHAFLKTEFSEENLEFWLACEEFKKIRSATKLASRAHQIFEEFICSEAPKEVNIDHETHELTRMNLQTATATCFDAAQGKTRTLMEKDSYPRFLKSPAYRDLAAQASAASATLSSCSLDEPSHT
UniProt P09471, whole entry, looked up: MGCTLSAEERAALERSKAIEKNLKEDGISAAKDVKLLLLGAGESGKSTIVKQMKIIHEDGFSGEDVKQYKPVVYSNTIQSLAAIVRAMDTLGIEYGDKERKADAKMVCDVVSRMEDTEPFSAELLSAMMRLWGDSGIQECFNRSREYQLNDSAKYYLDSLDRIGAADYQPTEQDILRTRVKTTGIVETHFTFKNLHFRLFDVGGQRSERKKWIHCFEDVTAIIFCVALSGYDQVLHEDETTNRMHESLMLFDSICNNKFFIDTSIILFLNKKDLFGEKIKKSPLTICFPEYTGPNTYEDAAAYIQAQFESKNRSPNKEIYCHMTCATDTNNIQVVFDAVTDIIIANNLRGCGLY

The entries are a selection whose mix differs from that of the whole data set. The source made the active and inactive calls. The rule behind the calls is not given here.
The compounds below were run against Regulator of G-protein signaling 16 (Homo sapiens) + Guanine nucleotide-binding protein G(o) subunit alpha (Homo sapiens) (UniProt O15492+P09471) (assay: modulators of RGS16 binding to Galphao, primary screen, biochemical, human proteins, multiplexed bead flow cytometry (AID 1441;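 note: Galphao activated by GDP with aluminum fluoride before binding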)). Conditions: bead-based flow cytometry RGS16-Galphao binding, fluorescence; at 10 µM; actives lie on both sides.
`CP(=O)(Nc1cccc(Br)c1)Oc1ccccc1` (stereo not drawn) was tested, and the binding response (% of control) was inactive: 98.7%. `Cc1ccc(C)c(NP(C)(=O)Oc2ccccc2)c1` (stereo not drawn) was tested, and the binding response (% of control) was inactive: 14.1%. For `CCCOP(=S)(Nc1nc(N)cc(=O)[nH]1)OCCC`, the binding response (% of control) was inactive: 99.2%. With `Cc1cc(C)cc(OP(C)(=O)Nc2ccc(C)cc2C)c1` (stereo not drawn) the binding response (% of control) was inactive: 103%. In the case of `Cc1cccc(OCC(=O)OC2CN3CCC2CC3)c1` (stereo not drawn), the binding response (% of control) is reported as inactive: 114%. `O=[As](O)(c1cccc(O)c1)c1cccc(O)c1` was tested, and the binding response (% of control) was inactive: 104%. For `CCOC(=O)c1ccc(NP(C)(=O)Oc2cc(C)cc(C)c2)cc1` (stereo not drawn), the binding response (% of control) was inactive: 112%. In the case of `O=C(OC1CN2CCC1CC2)c1ccc(Cl)cc1` (stereo not drawn), the binding response (% of control) is reported as inactive: 97.8%. `COc1ccccc1OP(C)(=O)Nc1cccc(Br)c1` (stereo not drawn) was tested, and the binding response (% of control) was inactive: 99.9%. `COc1cc(C(=O)NCC2(N3CCOCC3)CCCCC2)cc(Cl)c1OC(C)C` was tested, and the binding response (% of control) was inactive: 111%. In the case of `CN(C(=O)Cc1ccccc1)[C@@H]1CC[C@]2(CCCO2)C[C@H]1N1CCCC1`, the binding response (% of control) is reported as inactive: 82.4%. In the case of `CC1=NCCc2c1[nH]c1ccccc21.O=[N+]([O-])c1cc([N+](=O)[O-])c(O)c([N+](=O)[O-])c1`, the binding response (% of control) is reported as inactive: 111%. For `O=[N+]([O-])c1ccc2c(c1)nnn2O`, the binding response (% of control) was inactive: 251%. In the case of `NC(=O)Nc1ccc([As](=O)(O)O)cc1`, the binding response (% of control) is reported as inactive: 93.8%. `O=C(O)COc1ccc([As](=O)(O)O)cc1[N+](=O)[O-]` was tested, and the binding response (% of control) was inactive: 98.5%. With `O=P(Nc1nccs1)(Oc1ccccc1)Oc1ccccc1` the binding response (% of control) was inactive: 90%. `O=P(Nc1nccs1)(c1ccccc1)c1nc2ccccc2s1` (stereo not drawn) was tested, and the binding response (% of control) was inactive: 98.6%. `O=C(O)c1cccc(Nc2c([N+](=O)[O-])cc([N+](=O)[O-])cc2[N+](=O)[O-])c1` was tested, and the binding response (% of control) was inactive: 99.8%. `CS(=O)(=O)c1cc([N+](=O)[O-])c2no[n+]([O-])c2c1` was tested, and the binding response (% of control) was inactive: 29.8%. For `CCCOc1ccc(NP(C)(=O)Oc2ccc(Cl)cc2)cc1` (stereo not drawn), the binding response (% of control) was inactive: 99.3%. With `CP(=O)(Nc1ccc(SC(F)(F)F)cc1)Oc1ccccc1` (stereo not drawn) the binding response (% of control) was inactive: 94.6%. In the case of `Nc1cccc([As](=O)(O)c2ccccc2)c1`, the binding response (% of control) is reported as inactive: 101%. For `O=[As](O)(c1cccs1)c1cccs1`, the binding response (% of control) was inactive: 96.5%. For `Cc1ccc(OCC(=O)OC2CN3CCC2CC3)cc1` (stereo not drawn), the binding response (% of control) was inactive: 88.2%. `O=P1(Nc2ccc(Br)cn2)COc2ccccc2OC1` was tested, and the binding response (% of control) was inactive: 106%. In the case of `CN1CCCCC1COC(=O)C1(O)c2ccccc2CCc2ccccc21` (stereo not drawn), the binding response (% of control) is reported as inactive: 103%. For `COc1ccccc1OP(C)(=O)Nc1c(C)cccc1C` (stereo not drawn), the binding response (% of control) was inactive: 96.2%. `CCOC(=O)C(CC)C1=NC(C)(C)Cc2ccccc21.O=[N+]([O-])c1cc([N+](=O)[O-])c(O)c([N+](=O)[O-])c1` (stereo not drawn) was tested, and the binding response (% of control) was inactive: 92.9%. With `CN(C)C1(CNC(=O)c2ccc(S(C)(=O)=O)cc2)CCCCC1` the binding response (% of control) was inactive: 102%. In the case of `O=[N+]([O-])c1cc([N+](=O)[O-])c(Nc2nnnn2CCO)c([N+](=O)[O-])c1`, the binding response (% of control) is reported as inactive: 97.8%. For `CC1CCC(C(C)C)C(OP(=O)(Nc2ccccn2)c2ccccc2)C1` (stereo not drawn), the binding response (% of control) was inactive: 107%. For `Cc1nn(-c2ccccc2)c2c1P(=O)(N1CCOCC1)N(C)C(c1ccccc1)=N2` (stereo not drawn), the binding response (% of control) was inactive: 103%. With `COc1cc(C2NCCC3(OCCO3)C2(C)C)cc(OC)c1OC.O=[N+]([O-])c1cc([N+](=O)[O-])c(O)c([N+](=O)[O-])c1` (stereo not drawn) the binding response (% of control) was inactive: 101%. With `CN(C(=O)Cc1ccc(Cl)c(Cl)c1)[C@@H]1CCCC[C@H]1N1CCCC1` the binding response (% of control) was inactive: 104%. With `CC(C)/C=N\N=C(\N)N[N+](=O)[O-]` the binding response (% of control) was inactive: 94.8%. For `Cc1nc2ccc3ccccc3c2s1.O=[N+]([O-])c1cc([N+](=O)[O-])c(O)c([N+](=O)[O-])c1`, the binding response (% of control) was inactive: 100%. With `O=[As](O)(c1ccccc1Br)c1ccccc1Br` the binding response (% of control) was inactive: 102%. For `CC(C)(C)C(=O)NC(Sc1ncccn1)C(Cl)(Cl)Cl` (stereo not drawn), the binding response (% of control) was inactive: 98.4%. In the case of `Clc1n[nH]nc1-c1nn[nH][15n]1`, the binding response (% of control) is reported as inactive: 99.8%. For `O=[N+]([O-])c1cc([N+](=O)[O-])c(-n2nnc3ccccc32)c([N+](=O)[O-])c1`, the binding response (% of control) was inactive: 72.6%. `CCOP(=O)(Nc1ccc(C)cn1)OCC` was tested, and the binding response (% of control) was inactive: 95.8%. For `CCC(C)N(CC(C)C)C(=S)SC(NC(C)=O)C(Cl)(Cl)Cl` (stereo not drawn), the binding response (% of control) was inactive: 105%. `CP(=O)(Nc1ccccn1)Oc1ccc(Cl)cc1` (stereo not drawn) was tested, and the binding response (% of control) was inactive: 101%. With `CCOP(C)(=S)SCC(=O)NC(C)C(=O)O` (stereo not drawn) the binding response (% of control) was inactive: 94.2%. With `CCOC(=O)c1ccc(NC(=O)C(C)(CCl)SC)cc1` (stereo not drawn) the binding response (% of control) was inactive: 103%. `CCOC(=O)c1ccc(NP(C)(=O)Oc2ccc(OC)cc2)cc1` (stereo not drawn) was tested, and the binding response (% of control) was inactive: 114%. With `Cc1cc(C)cc(OP(C)(=O)Nc2ccc(SC(F)(F)F)cc2)c1` (stereo not drawn) the binding response (% of control) was inactive: 110%. In the case of `CP(=O)(NC(=O)Nc1ccccc1)Oc1ccccc1` (stereo not drawn), the binding response (% of control) is reported as inactive: 97.4%. With `O=C(COc1ccccc1)OC1CN2CCC1CC2` (stereo not drawn) the binding response (% of control) was inactive: 90.8%. In the case of `CCc1ccc(OP(C)(=O)N2CCN(c3ccc([N+](=O)[O-])cc3)CC2)cc1` (stereo not drawn), the binding response (% of control) is reported as inactive: 100%. `CP(=O)(Oc1ccccc1)OC(c1ccccc1)C(F)(F)F` (stereo not drawn) was tested, and the binding response (% of control) was inactive: 105%. For `COP1(=S)c2c(C)nn(CCC#N)c2N=C(c2ccc(F)cc2)N1C` (stereo not drawn), the binding response (% of control) was inactive: 100%. In the case of `CP(=O)(Nc1ccc(SC(F)(F)F)cc1)Oc1ccc(Cl)cc1` (stereo not drawn), the binding response (% of control) is reported as inactive: 102%. In the case of `Cc1cccc(C)c1OP(C)(=O)Nc1ccc(SC(F)(F)F)cc1` (stereo not drawn), the binding response (% of control) is reported as inactive: 138%. For `COc1ccccc1OP(C)(=O)Nc1ccccc1` (stereo not drawn), the binding response (% of control) was inactive: 103%. With `Cc1cc(SC(NC=O)C(Cl)(Cl)Cl)ncn1` (stereo not drawn) the binding response (% of control) was inactive: 101%. With `O=[N+]([O-])c1ccc(Nc2ccc(Oc3ccc([N+](=O)[O-])cc3[N+](=O)[O-])cc2)c([N+](=O)[O-])c1` the binding response (% of control) was inactive: 97.7%. In the case of `CP(=O)(Nc1ccccc1Br)Oc1ccccc1` (stereo not drawn), the binding response (% of control) is reported as inactive: 157%. With `CP(=S)(Nn1cnnc1)Oc1ccccc1` (stereo not drawn) the binding response (% of control) was inactive: 186%. In the case of `CCOC(=O)Nc1cccc([As](=O)(O)O)c1`, the binding response (% of control) is reported as inactive: 107%. `Cc1cc(SC(NC(=O)c2ccccc2)C(Cl)(Cl)Cl)nc(C(C)C)n1` (stereo not drawn) was tested, and the binding response (% of control) was inactive: 98%. In the case of `CCOC(=O)Nc1ccc([As](=O)(O)O)c(O)c1`, the binding response (% of control) is reported as inactive: 97.9%. In the case of `COc1ccc(OP(C)(=O)Nc2cccc(F)c2)cc1` (stereo not drawn), the binding response (% of control) is reported as inactive: 87.2%. `O=[N+]([O-])c1cc([N+](=O)[O-])c(-c2ccn[nH]2)s1` was tested, and the binding response (% of control) was inactive: 105%. With `CC(C)NC(=O)NP(=O)(Oc1ccccc1)Oc1ccccc1` the binding response (% of control) was inactive: 93.1%. In the case of `COc1ccccc1OP(C)(=O)Nc1cc(Cl)ccc1C` (stereo not drawn), the binding response (% of control) is reported as inactive: 107%. `CCN(CC)C(=S)SC(NC=O)C(Cl)(Cl)Cl` (stereo not drawn) was tested, and the binding response (% of control) was inactive: 106%. With `Cc1cc(C)cc(OP(C)(N)=O)c1` (stereo not drawn) the binding response (% of control) was inactive: 100%. In the case of `CCOC(=O)c1ccc(NP(C)(=O)Oc2ccccc2)cc1` (stereo not drawn), the binding response (% of control) is reported as inactive: 101%. For `CC(C)c1ccc(OP(=O)(Nc2ccccn2)Oc2ccccc2F)cc1` (stereo not drawn), the binding response (% of control) was inactive: 76.2%. In the case of `Cc1ccc(NP(C)(=O)Oc2ccccc2)c(C)c1` (stereo not drawn), the binding response (% of control) is reported as inactive: 103%. `COc1ccccc1OP(C)(=O)Nc1ccc(C)cc1` (stereo not drawn) was tested, and the binding response (% of control) was inactive: 64.3%. With `Cc1cccc(C)c1OP(C)(N)=O` (stereo not drawn) the binding response (% of control) was inactive: 105%. `Cc1ccc(OP(=O)(Nc2ccc([N+](=O)[O-])cn2)Oc2ccc(C)cc2)cc1` was tested, and the binding response (% of control) was inactive: 99.7%. In the case of `CC(C)(C)c1ccc(OP(C)(=O)Nc2ccc(SC(F)(F)F)cc2)cc1` (stereo not drawn), the binding response (% of control) is reported as inactive: 93.7%. With `O=[N+]([O-])c1ccc2c(c1)C=Nc1ccccc1O2` the binding response (% of control) was inactive: 112%. For `O=[As](O)(c1ccc(O)cc1)c1ccccc1O`, the binding response (% of control) was inactive: 98.3%. In the case of `C[As](=O)(O)c1cccc(C(=O)O)c1`, the binding response (% of control) is reported as inactive: 80.6%. With `COc1ccc(N/C(=N/P(=O)(N2CCOCC2)N2CCOCC2)N2CCOCC2)cc1` the binding response (% of control) was inactive: 115%. `COc1ccc2nc(NP(=O)(c3ccccc3)c3ccccc3)sc2c1` was tested, and the binding response (% of control) was inactive: 113%. For `Cc1c2c(nc3ccccc13)SC(C(Cl)Cl)C2` (stereo not drawn), the binding response (% of control) was inactive: 94.6%. `CCN(CC)CCCOC(=O)C(O)(c1ccccc1)c1ccccc1` was tested, and the binding response (% of control) was inactive: 99.6%. `Cc1cc(=O)[nH]c(N[N+](=O)[O-])n1` was tested, and the binding response (% of control) was inactive: 113%.

Source: PubChem BioAssay AID1441 (NMMLSC, 2008)
